Source: US7517874B2 (priority 2007, dated 2009)

By UniProt entry, the sequences of proteins in these tests, tags left out.
UniProt P34972, whole entry: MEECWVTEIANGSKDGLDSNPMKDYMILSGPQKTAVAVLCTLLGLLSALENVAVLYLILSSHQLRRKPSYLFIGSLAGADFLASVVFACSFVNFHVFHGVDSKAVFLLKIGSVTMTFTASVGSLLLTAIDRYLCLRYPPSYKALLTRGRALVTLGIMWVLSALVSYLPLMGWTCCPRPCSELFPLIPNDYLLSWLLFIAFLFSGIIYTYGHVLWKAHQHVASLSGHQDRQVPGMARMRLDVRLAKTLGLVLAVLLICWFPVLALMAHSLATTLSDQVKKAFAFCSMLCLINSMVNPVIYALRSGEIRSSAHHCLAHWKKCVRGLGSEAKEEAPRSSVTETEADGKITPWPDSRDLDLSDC

The compounds below were run against human CB2 receptor (hCB2) (Homo sapiens, UniProt P34972) (assay: cell-based). Conditions: not given.
Type: cell-based

Row | Compound | EC50 [nM]
1 | CNC(=O)[C@H](C)NC(=O)c1nc(-c2ccccc2)n2c1CN(S(=O)(=O)c1ccc(F)cc1)CC2 [Compound 110, (S)-7-(4-fluorophenylsulfonyl)-N-(1-(methylamino)-1-oxopropan-2-yl)-3-phenyl-5,6,7,8-tetrahydroimidazo[1,5-a]pyrazine-1-carboxamide] | > 10000
2 | CC(C)(C)[C@@H](CO)NC(=O)c1nc(-c2ccccc2)n2c1CN(CC1CC1)CC2 [Compound 84, (S)-7-(cyclopropylmethyl)-N-(1-hydroxy-3,3-dimethylbutan-2-yl)-3-phenyl-5,6,7,8-tetrahydroimidazo[1,5-a]pyrazine-1-carboxamide] | > 10000
3 | CNC(=O)[C@@H](NC(=O)c1nc(-c2ccc(C(=O)N(C)C)cc2)n2c1CN(C)CCC2)C(C)(C)C [Compound 394, (S)-N-(3,3-dimethyl-1-(methylamino)-1-oxobutan-2-yl)-3-(4-(dimethylcarbamoyl)phenyl)-8-methyl-6,7,8,9-tetrahydro-5H-imidazo[1,5-a][1,4]diazepine-1-carboxamide] | > 10000
4 | COC(=O)N1CCn2c(-c3ccccc3)nc(C(=O)NCC3CCOCC3)c2C1 [Compound 186, methyl 3-phenyl-1-((tetrahydro-2H-pyran-4-yl)methylcarbamoyl)-5,6-dihydroimidazo[1,5-a]pyrazine-7(8H)-carboxylate] | > 10000
5 | COC(=O)[C@@H](NC(=O)c1nc(-c2ccccc2)n2c1CN(C)CC2)C(C)(C)C [Compound 86, (S)-methyl 3,3-dimethyl-2-(7-methyl-3-phenyl-5,6,7,8-tetrahydro-imidazo[1,5-a]pyrazine-1-carboxamido)butanoate] | > 10000
6 | CNC(=O)[C@@H](NC(=O)c1nc(-c2ccccc2)n2c1CN(C(=O)c1ccccc1)CC2)C(C)(C)C [Compound 127, (S)-7-benzoyl-N-(3,3-dimethyl-1-(methylamino)-1-oxobutan-2-yl)-3-phenyl-5,6,7,8-tetrahydroimidazo[1,5-a]pyrazine-1-carboxamide] | > 10000
7 | CNC(=O)[C@@H](NC(=O)c1nc(-c2ccccc2C(C)C)n2c1CN(C)CCC2)C(C)(C)C [Compound 403, (S)-N-(3,3-dimethyl-1-(methylamino)-1-oxobutan-2-yl)-3-(2-isopropylphenyl)-8-methyl-6,7,8,9-tetrahydro-5H-imidazo[1,5-a][1,4]diazepine-1-carboxamide] | > 10000
8 | CNC(=O)c1cc(-c2nc(C(=O)N[C@H](C(=O)NC)C(C)(C)C)c3n2CCCN(C)C3)ccc1F [Compound 406, (S)-N-(3,3-dimethyl-1-(methylamino)-1-oxobutan-2-yl)-3-(4-fluoro-3-(methylcarbamoyl)phenyl)-8-methyl-6,7,8,9-tetrahydro-5H-imidazo[1,5-a][1,4]diazepine-1-carboxamide] | > 10000

Same assay, conditions: agonist or inverse agonist at hCB2

Row | Compound | +/− HCB2
9 | CNC(=O)[C@@H](NC(=O)c1nc(-c2ccccc2)n2c1CN(C(C)=O)CC2)C(C)(C)C [Compound 174, (S)-7-acetyl-N-(3,3-dimethyl-1-(methylamino)-1-oxobutan-2-yl)-3-phenyl-5,6,7,8-tetrahydroimidazo[1,5-a]pyrazine-1-carboxamide] | +
10 | Cc1noc([C@@H](NC(=O)c2nc(-c3ccccc3)n3c2CN(C)CCC3)C(C)(C)C)n1 [Compound 521, (S)-N-(2,2-dimethyl-1-(3-methyl-1,2,4-oxadiazol-5-yl)propyl)-8-methyl-3-phenyl-6,7,8,9-tetrahydro-5H-imidazo[1,5-a][1,4]diazepine-1-carboxamide] | +
11 | O=C(NC1CCCCC1)c1nc(-c2ccccc2)n2c1CNCC2 [Compound 47, N-cyclohexyl-3-phenyl-5,6,7,8-tetrahydroimidazo[1,5-a]pyrazine-1-carboxamide] | +
12 | CC(C)CN1CCn2c(-c3ccccc3)nc(C(=O)N[C@H](C)C(C)(C)C)c2C1 [Compound 52, (R)-N-(3,3-dimethylbutan-2-yl)-7-isobutyl-3-phenyl-5,6,7,8-tetrahydroimidazo[1,5-a]pyrazine-1-carboxamide] | +
13 | CNC(=O)[C@@H](NC(=O)c1nc(-c2ccccc2)n2c1CN(c1ncccn1)CC2)C(C)(C)C [Compound 298, N-(3,3-dimethyl-1-(methylamino)-1-oxobutan-2-yl)-3-phenyl-7-(pyrimidin-2-yl)-5,6,7,8-tetrahydroimidazo[1,5-a]pyrazine-1-carboxamide] | +
14 | CNC(=O)[C@@H](NC(=O)c1nc(-c2ccc(F)cc2)n2c1CN(C)CC2)C(C)(C)C [Compound 247, (S)-N-(3,3-dimethyl-1-(methylamino)-1-oxobutan-2-yl)-3-(4-fluorophenyl)-7-methyl-5,6,7,8-tetrahydroimidazo[1,5-a]pyrazine-1-carboxamide] | +
15 | C=Cc1nc(C(=O)N[C@H](C(=O)NC)C(C)(C)C)c2n1CCCN(C)C2 [Compound 430, (S)-N-(3,3-dimethyl-1-(methylamino)-1-oxobutan-2-yl)-8-methyl-3-vinyl-6,7,8,9-tetrahydro-5H-imidazo[1,5-a][1,4]diazepine-1-carboxamide] | +
16 | CNC(=O)[C@@H](NC(=O)c1nc(-c2ccccc2)n2c1CN(CCC(C)(C)C)CC2)C(C)(C)C [Compound 54, (S)-N-(3,3-dimethyl-1-(methylamino)-1-oxobutan-2-yl)-7-(3,3-dimethylbutan)-3-phenyl-5,6,7,8-tetrahydroimidazo[1,5-a]pyrazine-1-carboxamide] | −
17 | CNC(=O)[C@@H](NC(=O)c1nc(CCC2CCCCC2)n2c1CN(C)CCC2)C(C)(C)C [Compound 493, (S)-3-(2-cyclohexylethyl)-N-(3,3-dimethyl-1-(methylamino)-1-oxobutan-2-yl)-8-methyl-6,7,8,9-tetrahydro-5H-imidazo[1,5-a][1,4]diazepine-1-carboxamide] | −
18 | CNC(=O)[C@@H](NC(=O)c1nc(-c2ccccc2)n2c1CN(C)CCC2)C(C)(C)C [Compound 317, (S)-N-(3,3-dimethyl-1-(methylamino)-1-oxobutan-2-yl)-8-methyl-3-phenyl-6,7,8,9-tetrahydro-5H-imidazo[1,5-a][1,4]diazepine-1-carboxamide] | +
19 | CNC(=O)[C@@H](NC(=O)c1nc(/C=C/CN2CCCC2)n2c1CN(C)CCC2)C(C)(C)C [Compound 511, (S,E)-N-(3,3-dimethyl-1-(methylamino)-1-oxobutan-2-yl)-8-methyl-3-(3-(pyrrolidin-1-yl)prop-1-enyl)-6,7,8,9-tetrahydro-5H-imidazo[1,5-a][1,4]diazepine-1-carboxamide] | +
20 | CNC(=O)[C@@H](NC(=O)c1nc(/C=C/COC)n2c1CN(C)CCC2)C(C)(C)C [Compound 398, (S,E)-N-(3,3-dimethyl-1-(methylamino)-1-oxobutan-2-yl)-3-(3-methoxyprop-1-enyl)-8-methyl-6,7,8,9-tetrahydro-5H-imidazo[1,5-a][1,4]diazepine-1-carboxamide] | +
21 | CNC(=O)[C@@H](NC(=O)c1nc(CCCN2CCCCC2)n2c1CN(C)CC2)C(C)(C)C [Compound 307, (S)-N-(3,3-dimethyl-1-(methylamino)-1-oxobutan-2-yl)-7-methyl-3-(3-(piperidin-1-yl)propyl)-5,6,7,8-tetrahydroimidazo[1,5-a]pyrazine-1-carboxamide] | +
22 | CNC(=O)[C@@H](NC(=O)c1nc(-c2ccccc2F)n2c1CN(C)CC2)C(C)(C)C [Compound 258, (S)-N-(3,3-dimethyl-1-(methylamino)-1-oxobutan-2-yl)-3-(2-fluorophenyl)-7-methyl-5,6,7,8-tetrahydroimidazo[1,5-a]pyrazine-1-carboxamide] | +
23 | CNC(=O)[C@@H](NC(=O)c1nc(-c2ccccc2)n2c1CNCC2)C(C)(C)C [Compound 2, (S)-N-(3,3-dimethyl-1-(methylamino)-1-oxobutan-2-yl)-3-phenyl-5,6,7,8-tetrahydroimidazo[1,5-a]pyrazine-1-carboxamide] | +
24 | CNC(=O)[C@@H](NC(=O)c1nc(C2=CCCC2)n2c1CN(C)CCC2)C(C)(C)C [Compound 456] | +
25 | CNC(=O)[C@@H](NC(=O)c1nc(CCC(C)(C)C)n2c1CN(C)CCC2)C(C)(C)C [Compound 488, (S)-N-(3,3-dimethyl-1-(methylamino)-1-oxobutan-2-yl)-3-(3,3-dimethylbutyl)-8-methyl-6,7,8,9-tetrahydro-5H-imidazo[1,5-a][1,4]diazepine-1-carboxamide] | +
26 | CN1CCCn2c(-c3ccc(F)c(Cl)c3)nc(C(=O)N[C@H](C(=O)N(C)C)C(C)(C)C)c2C1 [Compound 558, (S)-3-(3-chloro-4-fluorophenyl)-N-(1-(dimethylamino)-3,3-dimethyl-1-oxobutan-2-yl)-8-methyl-6,7,8,9-tetrahydro-5H-imidazo[1,5-a][1,4]diazepine-1-carboxamide] | +
27 | CNC(=O)[C@@H](NC(=O)c1nc(C2=CCCC2)n2c1CN(C)CC2)C(C)(C)C [Compound 238, (S)-3-cyclopentenyl-N-(3,3-dimethyl-1-(methylamino)-1-oxobutan-2-yl)-7-methyl-5,6,7,8-tetrahydroimidazo[1,5-a]pyrazine-1-carboxamide] | +

Same assay, conditions: groups >100 nM-10 μM and >10 μM; cAMP, CHO-K1 hCB2; read-out: EC50 HCB2

Row | Compound | EC50 [nM]
28 | CN1CCn2c(-c3ccc(Cl)cc3F)nc(C(=O)N3CCC(n4cc(-c5ccccc5)[nH]c4=O)CC3)c2C1 [Compound 227, 1-(1-(3-(4-chloro-2-fluorophenyl)-7-methyl-5,6,7,8-tetrahydroimidazo[1,5-a]pyrazine-1-carbonyl)piperidin-4-yl)-4-phenyl-1H-imidazol-2(3H)-one] | > 10000
29 | CNC(=O)[C@@H](NC(=O)c1nc(-c2ccc(C(=O)N3CCN(C)CC3)cc2)n2c1CN(C)CCC2)C(C)(C)C [Compound 392, (S)-N-(3,3-dimethyl-1-(methylamino)-1-oxobutan-2-yl)-8-methyl-3-(4-(4-methylpiperazin-1-carbonyl)phenyl)-6,7,8,9-tetrahydro-5H-imidazo[1,5-a][1,4]diazepine-1-carboxamide] | > 10000
30 | CC12CCC(C1)C(C)(C)C2NC(=O)c1nc(-c2ccccc2)n2c1CN(C(=O)c1ccco1)CC2 (stereo not drawn) [Compound 122, 7-(furan-2-carbonyl)-3-phenyl-N-(1,3,3-trimethylbicyclo[2.2.1]heptan-2-yl)-5,6,7,8-tetrahydroimidazo[1,5-a]pyrazine-1-carboxamide] | > 10000
